Values of other authors, collected in patent US20060229344A1, “Method of treating amyotrophic lateral sclerosis” (priority 2005, published 2006).

System: amyotrophic lateral sclerosis
Conditions: ALS patients; Rowland, New Engl. J. Med. 2001

## Nc1nc2ccc(OC(F)(F)F)cc2s1 [RILUZOLE, 2-amino-6-(trifluoromethoxy) benzothiazole]
  effect on survival time in ALS: borderline significance
